Measurements published in patent US8962569B2, “Compositions comprising spp24 peptide fragments” (The Regeants of the University of California, priority 2010, dated 2015).

What was measured:
A549 cells [1] = experiment: Subcutaneous implantation of A549 cells and direct measurement of tumor size; assay type: in vivo, SCID mice
From the text: (§1) Forty, eight-week-old male SCID mice (weight 23.5 to 29.1 g, mean 27.1 g) were housed under pathogen-free conditions in accordance with the protocol approved by the Chancellor's Animal Research Committee (ARC) at the University of California, Los Angeles. There were four experimental groups in this study, and each group underwent implantation of cells in both a subcutaneous model and an intra-tibial injection. Group I animals received A549 cells alone as a control group. Group II animals received A549 cells+rhBMP-2 (10 μg/10 μl). Group III received an A549 cells+spp24 (1000 μg). Group IV received an A549 cells+rhBMP2+spp24. There were 10 animals in each group.
A549 cells (1×10^5) were suspended in 15 μl of 1×PBS and 15 μl Affi-Gel Blue (BioRad Laboratories, Hercules, Calif.) and injected into the subcutaneous space on the backs of mice. Briefly, after the SCID mice were anesthetized, then maintained via an isoflurane face mask, the overlying skin was prepped in sterile fashion with 70% ethanol and betadine. Different materials and A549 cells were then injected into the subcutaneous space on the backs of SCID mice. Animals were killed at 8 weeks or earlier if large tumor size exceeded that permitted by the ARC protocol and the tumor removed. Tumors were measured in three dimensions (length×width×depth). These measurements were repeated by three observers blinded to treatment group. […]

A549 cells [2] = experiment: Histologic and histomorphometric analysis of A549 tumors (subcutaneous and tibiae); assay type: in vivo, SCID mice
From the text: as §1
Animals were killed at 8 weeks (or earlier if required by an excessive tumor size) and both the soft tissue tumor and the hind limb were harvested for histological analysis. Soft tissue tumors were fixed in 10% buffered formalin. The tibias were fixed in 10% buffered formalin followed by decalcification in a solution of 10% EDTA for 2 weeks at room temperature with gentle stirring. Longitudinal sections of the proximal tibia were prepared and stained with H&E. For histologic and histomorphometric analyses, all microscopic slides were scanned with a ScanScope GL (Aperio Technologies, Inc., Vista, Calif.) equipped with a 20× objective. The following parameters were considered in the qualitative analysis: amount of tumor cells between cortices from the proximal tibia; anterior and posterior cortical destruction and remodeling; new bone formation within the medullary canal; and anterior/posterior extension of bone formation outside the medullary canal. These histologic findings were graded with the following scale: 0 (none), 1 (mild), 2 (moderate), 3 (intense). Bone volume and tumor volume, expressed as a percentage of total tissue volume (% BV/TV and % TuV/TV, respectively) were quantified in whole-slide images using Spectrum software (Aperio Technologies, Inc. Vista, Calif.).

A549 cells [3] = experiment: Intratibial implantation of A549 cells and radiographic analysis; assay type: in vivo, SCID mice
From the text: as §1
Tibial implantation of A549 cells plus experimental materials was performed as previously described.^14,15 Mice were anesthetized with isoflurane, then maintained via an isoflurane face mask. The overlying skin was prepped in a sterile fashion with 70% ethanol and betadine. A 3-mm longitudinal incision was made over the patellar ligament with a no. 11 scalpel blade and a 2-mm longitudinal incision was then made along the medial border of the patellar ligament to the tibial plateau. A 27.5-gauge needle was introduced through the proximal tibial plateau and into the proximal tibia. Thirty microliters of a suspension containing 1×10^5 A549 cells in 15 H.1 of 1×PBS with 15 μl of Affi-Gel Blue containing the appropriate test materials was injected into the cavity. The wound was closed with a single 5-0 Vicryl suture. At 8 weeks, prior to their sacrifice, animals were anesthetized as previously described, and radiographs were obtained using a Faxitron X-ray cabinet (Faxitron, Inc. Lincolnshire, Ill.). Three independent observers blinded to the treatment groups evaluated the radiographs for the presence of osteoblastic and osteolytic lesions. Radiographs were scored as follows: 0-normal; 1-lytic lesion present within the medullary canal only; 2-obliteration of one cortex; 3-obliteration of two cortices.

[4] = tested on: A549 human non-small cell lung cancer cells; experiment: A549 cell proliferation assay (Quick Cell Proliferation Assay); assay type: cell-based; settings: 48 h
Procedure: The human non-small cell lung cancer (NSCLC) cell line A549 was used in this study (ATCC, Manassas, Va., USA). A549 cells were maintained in DMEM with 10% FBS and antibiotics (Fisher scientific, Pittsburgh, Pa.) in a humidified incubator with 5% CO2 at 37° C. Cells were not used beyond 10 passages. Cells were plated in serum free medium at a density of 10,000 cells/well and allowed to attach for 24 h. RhBMP-2 (INFUSE®, Medtronic Sofamor Danek, Minneapolis, Minn.) was added to fresh serum-free media at final concentrations of 0, 1, 10, 50, 100, and 500 ng/ml. Recombinant spp24 was prepared as described previously (Murray E J B, et al., Connect Tiss Res 2007; 48:1-8) and added in serum-free media to final concentrations of 10, 25, 50, 75 μg/ml. Cells were incubated for 48 h before cell proliferation was assessed using Quick Cell Proliferation Assay (BioVision, Mountain View, Calif., USA) according to manufacturer's recommendations. Results were reported as a percentage compared with untreated cells.

[5] = tibiae, grade 0 (none) to 3 (intense), mean

rhBMP-2: recombinant human bone morphogenetic protein-2 (INFUSE, Medtronic Sofamor Danek)
increase of subcutaneous tumor volume versus cells alone (A549 cells [1]; 8 weeks): about 3 fold
subcutaneous tumor volume (A549 cells [1]; 8 weeks after co-injection with A549 cells, rhBMP-2 10 μg, spp24 1000 μg, cells alone 127.4±117.5, mean±SE per method): 558.4±590.7 mm3
% TuV/TV (tumor volume/total volume) (A549 cells [2]; longitudinal section of the proximal tibia at midline, mean): 58.3%
tumor cells in histological specimens (A549 cells [2]; subcutaneous and intratibial sites, 8 weeks): abundant masses of adenocarcinoma cells
% BV/TV (bone volume/total volume) (A549 cells [2]; tibia section, mean): 1.30%
Anterior cortex destruction (2) (A549 cells [2]; [5]): 3.0
Extension of bone formation outside the medullary canal (5) (A549 cells [2]; [5]): 0.83
New bone formation within the medullary canal (4) (A549 cells [2]; [5]): 0.50
Posterior cortex destruction (3) (A549 cells [2]; [5]): 3.0
Amount of tumor cells between cortices (1) (A549 cells [2]; tibiae, grade 0 (none), 1 (mild), 2 (moderate), 3 (intense), mean): 3.0
radiographic score, range (A549 cells [3]; 8 weeks, score 0-3): 1-3
average radiographic score (A549 cells [3]; 8 weeks, score 0 normal to 3 obliteration of two cortices, cells alone 2.1): 2.4±1.1
animals that formed an osteoblastic/osteolytic lesion (A549 cells [3]; by 8 weeks): Nine of 10
effect on A549 cell proliferation ([4]; agent alone, serum-free media, rhBMP-2 0-500 ng/ml, spp24 10-75 μg/ml): significantly increased proliferation in a dose-dependent manner
dose of maximal effect on A549 cell growth ([4]; in vitro): 50 ng/mL
